Data from EP0522203A1, “Protein from lactic acid bacteria” (PROBICOM RESEARCH B.V., priority 1991, dated 1993).

Test system: endopeptidase
Assay: Effect of potential inhibitors (chemical agents) on the endopeptidase activity (metenkaphalin hydrolysis, TLC)
Assay type: biochemical, L. lactis subsp. cremoris Wg2
Conditions: 1 mM chemical agent, purified enzyme 4 µg protein preincubated 10 min at 20°C, metenkaphalin 15 min at 30°C

Question: How did the Inhibition turn out when O=[As]c1ccccc1 (stereo not shown) was run?
Answer: -
